# Results published in PubChem BioAssay AID1006 (Sanford-Burnham Center for Chemical Genomics, 2008).
# By UniProt entry, the sequences of proteins in these tests, tags left out.
# UniProt P08659, whole entry, looked up: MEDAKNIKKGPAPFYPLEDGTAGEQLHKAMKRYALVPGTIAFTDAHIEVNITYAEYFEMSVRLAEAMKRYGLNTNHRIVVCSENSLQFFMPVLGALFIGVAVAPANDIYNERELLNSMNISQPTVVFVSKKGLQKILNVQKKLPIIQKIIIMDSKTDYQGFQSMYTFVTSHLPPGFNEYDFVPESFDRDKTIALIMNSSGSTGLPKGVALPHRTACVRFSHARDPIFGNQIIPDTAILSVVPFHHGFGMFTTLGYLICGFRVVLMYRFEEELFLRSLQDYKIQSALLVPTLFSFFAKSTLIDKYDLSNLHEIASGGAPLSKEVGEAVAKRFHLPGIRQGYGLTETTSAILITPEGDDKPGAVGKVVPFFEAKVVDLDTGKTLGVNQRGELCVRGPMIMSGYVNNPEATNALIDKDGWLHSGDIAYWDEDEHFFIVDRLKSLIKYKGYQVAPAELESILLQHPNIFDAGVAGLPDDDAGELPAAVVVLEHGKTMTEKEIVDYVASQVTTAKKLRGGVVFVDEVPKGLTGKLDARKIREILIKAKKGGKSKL
# This is a selection; strong and weak results do not stand in their true shares. Activity calls are given as the source filed them.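 Rule for the calls: active = inhibition above about 50% when tested at 10 µM (limit read from the data); inactive = the rest.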
# Molecular target: Luciferin 4-monooxygenase (Photinus pyralis) (UniProt P08659)
# Experiment: firefly luciferase enzyme inhibitors, primary screen, artefact control for luciferase-based inhibitor screens, biochemical, luminescence, ATPLite (AID 1006)
# Details: 10 min, at 10 µM, hits give high values
row,SMILES,inhibition
1,Cc1cc(SC(NC(=O)c2ccccc2)C(Cl)(Cl)Cl)nc(C(C)C)n1 (centres undefined),inactive: -8.9%
2,Cc1cc(SC(NC=O)C(Cl)(Cl)Cl)ncn1 (centres undefined),inactive: 0.5%
3,O=P(Nc1ccccn1)(c1cccc2ccccc12)c1cccc2ccccc12,inactive: -4.4%
4,O=C(COc1ccccc1)OC1CN2CCC1CC2 (centres undefined),inactive: -1.7%
5,COP1(=S)c2c(C)nn(CCC#N)c2N=C(c2ccc(F)cc2)N1C (centres undefined),inactive: -3.7%
6,CCC(C)N(CC(C)C)C(=S)SC(NC(C)=O)C(Cl)(Cl)Cl (centres undefined),inactive: -7.5%
7,COc1ccc2nc(NP(=O)(c3ccccc3)c3ccccc3)sc2c1,inactive: -10.9%
8,Cc1c2c(nc3ccccc13)SC(C(Cl)Cl)C2 (centres undefined),inactive: -0.4%
9,O=C(OC1CN2CCC1CC2)C12CC3CC(CC(C3)C1)C2 (centres undefined),inactive: -2%
10,Cc1cc(=O)[nH]c(N[N+](=O)[O-])n1,inactive: -1.8%
11,COc1ccc(N/C(=N/P(=O)(N2CCOCC2)N2CCOCC2)N2CCOCC2)cc1,inactive: -6.2%
12,Cc1ccc2nc3c(c(C)c2c1)CC(C(Cl)Cl)S3 (centres undefined),inactive: -1.5%
13,CCN(CC)C(=S)SC(NC=O)C(Cl)(Cl)Cl (centres undefined),inactive: -1.8%
14,CC(C)NC(=O)NP(=O)(Oc1ccccc1)Oc1ccccc1,inactive: -5.4%
15,O=[N+]([O-])c1cc([N+](=O)[O-])c(-c2ccn[nH]2)s1,inactive: -2.5%
16,ClCCSc1nnc(-c2cccnc2)o1,inactive: 1.6%
17,CCOP1(=S)c2c(C)nn(CCC#N)c2N=C(c2ccccc2F)N1C (centres undefined),inactive: -6.5%
18,O=P(Nc1nccs1)(c1ccccc1)c1nc2ccccc2s1 (centres undefined),inactive: -0.3%
19,O=P(Nc1nccs1)(Oc1ccccc1)Oc1ccccc1,inactive: -1.6%
20,CCOP1(=S)c2c(C)nn(CCC#N)c2N=C(c2ccc(F)cc2)N1C (centres undefined),inactive: -6.4%
21,O=[N+]([O-])c1ccc2c(c1)nnn2O,inactive: -4.9%
22,Cc1cccc(OCC(=O)OC2CN3CCC2CC3)c1 (centres undefined),inactive: -2.1%
23,COc1cc(C(=O)NCC2(N3CCOCC3)CCCCC2)cc(Cl)c1OC(C)C,inactive: -2.6%
24,COc1cc(C2NCCC3(OCCO3)C2(C)C)cc(OC)c1OC (centres undefined),inactive: -4.1%
25,CCOP(=O)(Nc1cccc2ccccc12)OCC,inactive: -2.9%
26,Cc1ccc(NCCc2c([N+](=O)[O-])cc([N+](=O)[O-])cc2[N+](=O)[O-])cc1,inactive: -0.4%
27,Clc1n[nH]nc1-c1nn[nH][15n]1,inactive: -5.5%

row,SMILES,inhibition
1,O=P1(Nc2ccccn2)COc2ccccc2OC1,inactive: -5.2%
2,CN(C(=O)Cc1ccc(Cl)c(Cl)c1)[C@@H]1CCCC[C@H]1N1CCCC1,inactive: -3.5%
3,CC(C)/C=N\N=C(\N)N[N+](=O)[O-],inactive: -5.1%
4,CN(C)C1(CNC(=O)c2ccc(S(C)(=O)=O)cc2)CCCCC1,inactive: -4.6%
5,Cc1nn(-c2ccccc2)c2c1P(=O)(N1CCOCC1)N(C)C(c1ccccc1)=N2 (centres undefined),inactive: -8.1%
6,CC1CCC(C(C)C)C(OP(=O)(Nc2ccccn2)c2ccccc2)C1 (centres undefined),inactive: -1.5%
7,O=P1(Nc2ccc(Br)cn2)COc2ccccc2OC1,inactive: -3.3%
8,Cc1ccc(OCC(=O)OC2CN3CCC2CC3)cc1 (centres undefined),inactive: -2.6%
9,O=P1(Nc2ncccn2)COc2ccccc2OC1,inactive: 6.4%
10,O=P(Nc1ccccn1)(c1ccc(Br)cc1)c1ccc(Br)cc1,inactive: 3.1%
11,O=C(OC1CN2CCC1CC2)c1cccc(Cl)c1 (centres undefined),inactive: -0.3%
12,C(Cc1nn[nH]n1)Cc1nn[nH]n1,inactive: -2.9%
13,CC(=O)NC(SC(=S)N(C)C)C(Cl)(Cl)Cl (centres undefined),inactive: -2.2%
14,c1nnnn1CCn1cnnn1,inactive: -7.1%
15,O=P(Nc1nccs1)(c1ccccc1)c1ccccc1,inactive: -0.6%
16,CC(C)C(=O)NC(Sc1ccccc1)C(Cl)(Cl)Cl (centres undefined),inactive: -6.8%
17,CC(C)(C)C(=O)NC(Sc1ccccc1)C(Cl)(Cl)Cl (centres undefined),inactive: -7.2%
18,O=P1(Nc2nc3ccc(Cl)cc3s2)COc2ccccc2O1 (centres undefined),inactive: 1.1%
19,CCOc1ccc(C2=NCC(CBr)S2)cc1 (centres undefined),inactive: 16.7%
20,CC(=O)Nc1ccc(Oc2c([N+](=O)[O-])cc([N+](=O)[O-])cc2[N+](=O)[O-])cc1,inactive: -3.6%
21,c1ccc(-c2nn[nH]n2)c(-c2nn[nH]n2)c1,inactive: 4.4%
22,CCOC(=O)NC(Sc1ccccc1)C(Cl)(Cl)Cl (centres undefined),inactive: -6.8%
23,O=C(NC1CCS(=O)(=O)C1)NP(=S)(Oc1ccccc1)Oc1ccccc1 (centres undefined),inactive: -1.5%
24,CCNC(=S)/N=C(\N)N[N+](=O)[O-],inactive: -9%
25,O=c1c2cc([N+](=O)[O-])ccc2[nH]c2c([N+](=O)[O-])cc([N+](=O)[O-])cc12,inactive: -7.7%
26,CCC(=O)N1C2C3N(C(=O)CC)C1C1N(C(=O)CC)C(C(N1C(=O)CC)N3C(=O)CC)N2C(=O)CC,inactive: -8.7%
27,COC(=O)c1cc2c(s1)N=C(c1ccccc1)N(C)P2(=O)N1CCOCC1 (centres undefined),inactive: -6.9%

row,SMILES,inhibition
1,Cc1ccc(OP(=O)(Nc2ccccn2)Oc2ccc(C)cc2)cc1,inactive: -4.6%
2,CC(=O)NC(SC(=S)N(CC(C)C)CC(C)C)C(Cl)(Cl)Cl (centres undefined),inactive: -10%
3,CCOP(=O)(Nc1ccccc1)OCC,inactive: -4.9%
4,Cc1cc(SC(NC(=O)c2ccc(F)cc2)C(Cl)(Cl)Cl)ncn1 (centres undefined),inactive: -11.4%
5,CCN(N=Nc1nonc1N)c1nonc1N,inactive: -16.7%
6,Clc1ccc(Cl)c(NC2=NCC(CBr)S2)c1 (centres undefined),inactive: -4.6%
7,CN1CCCC(OC(=O)C(c2ccccc2)c2ccccc2)C1 (centres undefined),inactive: -4.5%
8,COc1ccccc1OP(=O)(Nc1ccc(C)cn1)Oc1ccccc1OC,inactive: -4.1%
9,Cc1ccc(N/C(=N/P(=O)(N2CCOCC2)N2CCOCC2)N2CCOCC2)cc1,inactive: -5.1%
10,NC(=O)c1cc([N+](=O)[O-])cc([N+](=O)[O-])c1N,inactive: 0.6%
11,Oc1ccccc1CNc1ccccn1,inactive: -1.3%
12,Cc1c2non([O-])c-2c(C)[n+](=O)[n+]1[O-],inactive: 1.3%
13,O=C(NC(Sc1ccncn1)C(Cl)(Cl)Cl)c1ccccc1 (centres undefined),inactive: -5.5%
14,CC(C)CC(=O)NC(Sc1ccc(Cl)cc1)C(Cl)(Cl)Cl (centres undefined),inactive: -6.2%
15,Cc1ccc(NP(=O)(Oc2ccccc2)Oc2ccccc2)nc1,inactive: -3.9%
16,O=[N+]([O-])c1cc([N+](=O)[O-])c(CCNc2ccccc2)c([N+](=O)[O-])c1,inactive: -3.2%
17,CCc1nc2c(n1)c1c(non1O)c1c2no[n+]1[O-],inactive: -9.9%
18,CC(=O)N1C2C3N(C(C)=O)C1C1N(C(C)=O)C(C(N1C(C)=O)N3C(C)=O)N2C(C)=O,inactive: -10.1%
19,O=[N+]([O-])c1cccc2n[nH]nc12,inactive: -5.9%
20,COc1ccc(C2=NCC(CBr)S2)cc1 (centres undefined),inactive: 3.9%
21,CC1CCN(C(=O)Oc2c(Cl)cc(Cl)c3cccnc23)CC1,inactive: -1.1%
22,CC(C)=N/N=C(\N)N[N+](=O)[O-],inactive: -3.8%
23,CN(C)C(=O)OCCc1n(C)cc[n+]1C,inactive: -3%
24,CCN(/C(=N/P(=O)(N1CCOCC1)N1CCOCC1)N1CCOCC1)c1ccc(OC)cc1,inactive: -4.1%
25,O=[N+]([O-])c1ncn(CCn2ncnc2[N+](=O)[O-])n1,inactive: -0.9%
